Experimental data published in ChEMBL document CHEMBL3085682, “Santacruzamate A, a potent and selective histone deacetylase inhibitor from the Panamanian marine cyanobacterium cf. Symploca sp” (J Nat Prod, 2013).
Active and inactive are the calls of the source. The calls are words filed in the database; no cut-off is given here.

Amino acid sequences for entries named in this document (tags omitted).
UniProt Q92769, whole entry: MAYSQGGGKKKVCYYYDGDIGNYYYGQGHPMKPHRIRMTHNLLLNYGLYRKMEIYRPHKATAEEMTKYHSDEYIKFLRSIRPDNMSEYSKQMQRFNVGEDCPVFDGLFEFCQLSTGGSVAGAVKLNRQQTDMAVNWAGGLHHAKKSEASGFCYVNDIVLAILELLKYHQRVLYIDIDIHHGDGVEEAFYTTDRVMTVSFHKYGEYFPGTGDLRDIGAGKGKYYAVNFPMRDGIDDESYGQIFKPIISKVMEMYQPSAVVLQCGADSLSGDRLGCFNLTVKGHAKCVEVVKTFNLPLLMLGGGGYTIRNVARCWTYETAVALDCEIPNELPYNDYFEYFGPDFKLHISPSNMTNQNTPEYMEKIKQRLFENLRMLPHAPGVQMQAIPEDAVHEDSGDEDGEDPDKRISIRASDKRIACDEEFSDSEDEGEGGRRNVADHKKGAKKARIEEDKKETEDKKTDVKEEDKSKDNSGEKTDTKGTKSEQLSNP

Target: Histone deacetylase 2 (Homo sapiens, UniProt Q92769)
Conditions: 1 uM

Compound | inhibition
CCOC(=O)NCCCC(=O)NCCc1ccccc1 | Active
O=C(CCCC(=O)NCCc1ccccc1)NO | Active
